Data on two compounds can be found in ChEMBL document CHEMBL1123256, “Neuroleptics from the 4a,9b-trans-2,3,4,4a,5,9b-hexahydro-1H-pyrido[4,3-b]indole series. 3. Carboxamidoalkyl derivatives” (J Med Chem, 1986).

This assay concerns the target Dopamine receptor.

SMILES strings stand for the structures.

In general, IC50 refers to the midpoint of a concentration-inhibition curve. Higher therefore signals weaker potency. `Cc1ccc(S(=O)(=O)NCCCCN2CC[C@@H]3C(C2)c2cc(F)ccc2N3c2ccc(F)cc2)cc1.Cl` (some centres not stated): the IC50 is 27 nM. The result for `Cl.O=C(NCCCCN1CC[C@@H]2C(C1)c1cc(F)ccc1N2c1ccc(F)cc1)c1ccccc1` (some centres not stated) reads 19 nM.
